Results published in patent publication US11845808B2, “Peptide inhibitors of interleukin-23 receptor and their use to treat inflammatory diseases” (Janssen Biotech, Inc., priority 2020, dated 2023).

Columns and labels:
[1] = target: IL-23 stimulated phosphorylated STAT3 in PBMCs (Homo sapiens, UniProt Q5VWK5); test: PBMC pSTAT3 assay; assay type: cell-based; details: PBMCs from healthy donors, IL-23 5 ng/mL, 30 minutes
[2] = Stability in human fecal homogenate; assay type: in vitro ADME; details: 20% human fecal homogenate, 37° C., 20 μM
[3] = Stability in simulated gastric fluid (SGF); assay type: in vitro ADME; details: pepsin, pH=2, 37° C., 20 μM peptide
Description: Studies were carried out in simulated intestinal fluid (SIF) and simulated gastric fluid (SGF) to evaluate gastric stability of the peptide inhibitors of the present invention. In addition, studies were carried out to assess redox stability of the peptide inhibitors of the present invention.
SGF was prepared by adding 20 mg NaCl, 32 mg porcine pepsin (MP Biochemicals, catalog 02102599), and 700 HCl to 10 ml water (final pH=2). Aliquots of SGF (0.5 ml each) were pre-warmed at 37° C. To start the reaction, 1 μl of peptide stock solution (10 mM in DMSO) was added to 0.5 ml SGF and thoroughly mixed such that the final peptide concentration was 20 μM. The reactions were incubated at 37° C. with gentle shaking. At each time point (0, 15, 30, 60 min) 50 μl aliquots were removed and added to 200 ul acetonitrile containing 0.1% formic acid to quench the reaction. Samples are stored at 4° C. until the end of the experiment and centrifuged at 10,000 rpm for 5 minutes. Aliquots of the supernatant were removed, diluted 1:1 into distilled water containing internal standard, and analyzed by LCMS/MS. Percent remaining at each timepoint was calculated based on the peak area response ratio of test to compound to internal standard. Time 0 was set to 100%, and all later timepoints were calculated relative to time 0. Half-lives were calculated by fitting to a first-order exponential decay equation using GraphPad.

[4] = Stability in cynomolgus monkey fecal homogenate; assay type: in vitro ADME; details: 20% cynomolgus monkey fecal homogenate, 37° C., 20 μM
[5] = Stability in simulated intestinal fluid (SIF); assay type: in vitro ADME; details: 100 fold dilution of standard SIF concentration, 37° C., 20 μM
Method in brief: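 Peptides at 20 μM final were incubated at 37 °C in SIF (potassium phosphate with pancreatin, pH 6.8), and reactions were quenched with acetonitrile/1% formic acid at time points from 0 min to 24 h. Percent remaining relative to time 0 was determined by LC-MS/MS against an internal standard, and half-life came from a first-order decay fit.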

IL-23R = target: T1, IL-23R (Homo sapiens, UniProt Q5VWK5); test: DB cells IL23R pSTAT3 cell assay (pStat3 HTRF); assay type: cell-based; details: IL-23R-expressing DB cells, IL-23 0.5 nM, 30 minutes
T1 construct: examines the levels of pSTAT3 in IL-23R-expressing DB cells when stimulated with IL-23; host or cells: DB cells
T1 sequence (Q5VWK5 24-629): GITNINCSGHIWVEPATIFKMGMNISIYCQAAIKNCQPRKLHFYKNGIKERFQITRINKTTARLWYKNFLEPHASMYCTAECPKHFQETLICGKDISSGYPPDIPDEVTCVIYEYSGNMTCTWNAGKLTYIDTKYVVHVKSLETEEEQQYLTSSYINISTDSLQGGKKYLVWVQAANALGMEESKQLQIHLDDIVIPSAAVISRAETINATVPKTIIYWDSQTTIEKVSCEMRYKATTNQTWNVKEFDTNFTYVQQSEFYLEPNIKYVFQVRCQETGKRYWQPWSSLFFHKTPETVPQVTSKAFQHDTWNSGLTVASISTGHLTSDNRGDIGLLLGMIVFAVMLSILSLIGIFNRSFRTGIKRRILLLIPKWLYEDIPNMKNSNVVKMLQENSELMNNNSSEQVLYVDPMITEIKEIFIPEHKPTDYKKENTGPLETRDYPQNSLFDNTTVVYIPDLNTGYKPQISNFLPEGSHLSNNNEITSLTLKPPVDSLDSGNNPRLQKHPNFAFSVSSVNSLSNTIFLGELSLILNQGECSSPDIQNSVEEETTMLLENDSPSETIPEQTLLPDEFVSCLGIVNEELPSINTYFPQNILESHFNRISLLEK
Description: Human ELISA indicates the IL23-IL23R competitive binding assay described below, Rat ELISA indicates the rat IL-23R competitive binding ELISA assay described below, and pStat3HTRF indicates the DB cells IL-23R pSTAT3 cell assay described below. The peptides depicted in Table E1A and Table E1B are cyclized via a disulfide bridge formed between two Pen residues in these peptides. The peptides depicted in Table E2 are cyclized via a thioether bond between the indicated amino acid residues. Table E2 provides an illustrative structure depicting thioether cyclization, which is indicated in the table by the term “cyclo,” with the cyclic region bracketed immediately following the term “cyclo.” For certain peptides, the residue Abu is present where indicated, whereas in other embodiments, e.g., those related to the non-cyclized form, the Abu may be referred to as a hSer(Cl) or homoSer residue.
DB Cells IL23R pSTAT3 Cell Assay
Where not shown or it is marked as “0”, data was not yet determined.

Stability in rat plasma = assay type: in vitro ADME; details: SD rat plasma, 37° C., 20 μM
[6] = target: IL-23 induced IFNγ in natural killer (NK) cells (Homo sapiens, UniProt Q5VWK5); test: NK cell based assay (IL-23/IL-18 induced IFNγ); details: IL-23 at EC50 to EC75 and IL-18 10 ng/mL, IFNγ in supernatant after 20 to 24 hours
Description: Example 3: NK Cell Based Assay

| Substance | IC50 [1] | t½: Human Feces anaerobic [2] | SGF t½ [3] | t½: Monkey Feces anaerobic [4] | SIF t½ [5] | IC50 (IL-23R) | t½: Rat Plasma EDTA (Stability in rat plasma) | IC50 [6] |
| --- | --- | --- | --- | --- | --- | --- | --- | --- |
| Ac-[(D)Arg]-[Pen]-N-T-[W(7-Me)]-[Lys(Ac)]-[Pen]-Phe[4-(2-aminoethoxy)]-[2-Nal]-[THP]-E-N-[His_3Me]-NH2 [Peptide 146] | 0.036 nM | 10.3 h | >24.0 h | 14.2 h | >24.0 h | – | – | – |
| Ac-[Abu]-Q-T-[W(7-Me)]-Q-[Cys]-Phe[4-(2-aminoethoxy)]-[2-Nal]-[THP]-E-N-[3Pal]-[Sarc]-NH2 [Peptide 109] | – | 3 h | 17 h | 12.6 h | 14.1 h | 0.041 nM | >24.0 h | – |
| Ac-[Pen]-E-T-[W(7-Me)]-[Lys(Ac)]-[Pen]-Phe[4-(2-aminoethoxy)]-[2-Nal]-[THP]-[Lys(Ac)]-N-[3Pal]-[Sarc]-NH2 [Peptide 138] | – | >24.0 h | >24.0 h | >24.0 h | 9 h | 0.054 nM | >24.0 h | – |
| Ac-[Pen]-N-T-[W(7-Me)]-[Lys(Ac)]-[Pen]-Phe[4-(2-aminoethoxy)]-[2-Nal]-[THP]-E-N-H-[Sarc]-NH2 [Peptide 22] | 0.51 nM | >24.0 h | >24.0 h | 7.6 h | >24.0 h | – | >24.0 h | 0.774 nM |
| Ac-[Pen]-N-T-[W(7-Me)]-[Lys(Ac)]-[Pen]-Phe[4-(2-aminoethoxy)]-[2-Nal]-[THP]-[Lys(Ac)]-N-[3Pal]-[Sarc]-NH2 [Peptide 133] | – | – | >24.0 h | – | 13.8 h | 0.06 nM | >24.0 h | – |
| Ac-[Pen]-N-T-[W(7-Me)]-[Lys(Ac)]-[Pen]-Phe[4-(2-aminoethoxy)]-[2-Nal]-[a-MeLys]-[Lys(Ac)]-N-H-[Sarc]-NH2 [Peptide 23] | 0.78 nM | >24.0 h | >24.0 h | 15.8 h | >24.0 h | – | >24.0 h | 0.706 nM |
| Ac-[Pen]-N-T-[W(7-Me)]-[Lys(Ac)]-[Pen]-Phe[4-(2-aminoethoxy)]-[2-Nal]-[a-MeLys]-[Lys(Ac)]-N-[(D)Leu]-[(D)NMeTyr]-NH2 [Peptide 47] | 1.9 nM | >24.0 h | >24.0 h | >24.0 h | 20.1 h | – | >24.0 h | 1.7 nM |
| Ac-[Pen]-N-T-[W(7-Me)]-[Lys(Ac)]-[Pen]-Phe[4-(2-aminoethoxy)]-[2-Nal]-[a-MeLys]-[Lys(Ac)]-N-[(D)Lys]-[(D)NMeTyr]-NH2 [Peptide 48] | 1.7 nM | >24.0 h | >24.0 h | >24.0 h | 13.9 h | – | >24.0 h | 1.01 nM |
| Ac-[Pen]-N-T-[W(7-Me)]-[Lys(Ac)]-[Pen]-Phe[4-(2-aminoethoxy)]-[3-Quin]-[a-MeLys]-[Lys(Ac)]-N-H-[Sarc]-NH2 [Peptide 5] | 2.6 nM | >24.0 h | >24.0 h | 15.8 h | >24.0 h | – | >24.0 h | 0.785 nM |
| Ac-[Pen]-N-T-[W(7-Me)]-[Lys(Ac)]-[Pen]-Phe[4-(2-aminoethoxy)]-[3Quin]-[THP]-E-N-H-[Sarc]-NH2 [Peptide 53] | 1.8 nM | 17.7 h | >24.0 h | >24.0 h | 21.6 h | – | >24.0 h | 0.812 nM |
| Ac-[Pen]-N-T-[W(7-Me)]-[Lys(Gly)]-[Pen]-Phe[4-(2-aminoethoxy)]-[2-Nal]-[THP]-E-N-H-[Sarc]-NH2 [Peptide 26] | 0.95 nM | 4.4 h | >24.0 h | 5.3 h | 20.3 h | – | >24.0 h | 0.587 nM |
| Ac-[Pen]-N-T-[W(7-Ph)]-[Lys(Ac)]-[Pen]-Phe[4-(2-aminoethoxy)]-[2-Nal]-[THP]-E-N-H-[Sarc]-NH2 [Peptide 52] | 0.34 nM | >24.0 h | >24.0 h | 19.5 h | >24.0 h | – | >24.0 h | 0.46 nM |
| Ac-[Pen]-N-T-[W(7-Ph)]-[Lys(Ac)]-[Pen]-Phe[4-(2-aminoethoxy)]-[2-Nal]-[a-MeLys]-[Lys(Ac)]-N-H-[Sarc]-NH2 [Peptide 51] | 0.87 nM | >24.0 h | >24.0 h | 24.6 h | >24.0 h | – | >24.0 h | 0.627 nM |
| Ac-[Pen]-N-T-[W(7-Ph)]-[Lys(Ac)]-[Pen]-Phe[4-(2-aminoethoxy)]-[2-Nal]-[a-MeLys]-[Lys(Ac)]-N-[3Pal]-[Sarc]-NH2 [Peptide 105] | 0.019 nM | >24.0 h | >24.0 h | >24.0 h | >24.0 h | – | >24.0 h | 0.0523 nM |
| Ac-[Pen]-N-T-[W(7-Ph)]-[Lys(Ac)]-[Pen]-Phe[4-(2-aminoethoxy)]-[3Quin]-[THP]-E-N-H-[Sarc]-NH2 [Peptide 15] | 2.2 nM | >24.0 h | >24.0 h | >24.0 h | >24.0 h | – | >24.0 h | 0.963 nM |
| Ac-[Pen]-N-T-[W(7-Ph)]-[Lys(Ac)]-[Pen]-Phe[4-(2-aminoethoxy)]-[3Quin]-[a-MeLys]-[Lys(Ac)]-N-H-[Sarc]-NH2 [Peptide 16] | 1.9 nM | >24.0 h | >24.0 h | 20.8 h | >24.0 h | – | >24.0 h | 0.779 nM |
